Data reported in patent publication US4900730A, “Preparation which promotes the absorption of peptides” (priority 1981, dated 1990).

Assay: Rectal circulation: Cephalothin disappeared by absorption (Examples 10-14, 16-18)
Conditions: for Cephalothin disappeared by absorption, Osmotic pressure X 4: four-fold tonic; for Cephalothin disappeared by absorption, Osmotic pressure X 1: isotonic
Experimental: The experiments were conducted similarly as in Example 1. […] Each sample was diluted and the quantity of Cephalothin disappeared was determined by UV-spectrophotometer of high-speed liquid chromatography.

[1] = Table 8, promoter 0.1 W/V %, as in Example 10
[2] = Table 12, acid compound 0.1 W/V%, Example 10 repeated

Row | Substance | Cephalothin disappeared by absorption, Osmotic pressure X 4 [1] | Cephalothin disappeared by absorption, Osmotic pressure X 1 [1] | Cephalothin disappeared by absorption, Osmotic pressure X 2 (Table 8, promoter 0.1 W/V %, as in Example 10, two-fold tonic) | Cephalothin disappeared by absorption, Osmotic pressure X 4 [2] | Cephalothin disappeared by absorption, Osmotic pressure X 1 [2]
1 | 1-naphthol-3,6-disulfonic acid [NDS] | 31.6 percents | 12.6 percents | 19.8 percents | – | –
2 | glycero-3-phosphoric acid | – | – | – | 11.5 percents | 4.0 percents
